Measurements published in patent EP4831156A1, “SUBSTITUTED N-(4-TRIFLUOROMETHYL)-2-CYANOCROTONAMIDE COMPOUND, PREPARATION METHOD THEREFOR, AND PHARMACEUTICAL COMPOSITION AND USE THEREOF” (dated 2026).

What was measured:
[1] = test system: Acetic Acid-induced Writhing Response in Mice; assay: Acetic acid-induced writhing response in mice; conditions: 40 mg/kg oral, 0.6% acetic acid i.p. 30 min after administration; for Writhing times within 20 min: x±s, n=8
[2] = test system: 786-O cells; assay: Anticancer activity, CellTiter-Glo Luminescent Cell Viability Assay; conditions: read-out: IC50 (µM) 786-O; 72 h incubation
[3] = test system: A549 cells; assay: as above; conditions: read-out: IC50 (µM) A549; 72 h incubation
[4] = test system: H460 cells; assay: as above; conditions: read-out: IC50 (µM) H460; 72 h incubation
[5] = test system: LNCaP cells; assay: as above; conditions: read-out: IC50 (µM) LNCaP; 72 h incubation
[6] = test system: PC3; assay: as above; conditions: read-out: IC50 (µM) PC3; 72 h incubation
[7] = test system: DU145 cells; assay: as above; conditions: read-out: IC50 (µM) DU145; 72 h incubation
[8] = test system: ICR mice; assay: Tolerance study of test drugs in mice; conditions: for Clinical observation: 200 mg/kg intraperitoneally once daily for 4 consecutive days; for Tolerance dose: intraperitoneally once daily for 4 consecutive days
[9] = test system: Experimental Autoimmune Encephalomyelitis (EAE) Mice; assay: Experimental autoimmune encephalomyelitis (EAE) mouse model: LFB staining, IL-17A and IFN-γ detection, neurological score; conditions: 5 mg/kg for 14 consecutive days; for IL-17A level in spinal / IFN-γ level in spinal: compared with the model group; for IL-17A level in spinal: Fig. 3; for IFN-γ level in spinal: Fig. 4

**Q.** What does the source list for COC(=O)[C@@H](N)Cc1ccc(NC(=O)N/C(C)=C(\C#N)C(=O)Nc2ccc(C(F)(F)F)cc2)cc1?
**A.** Writhing inhibition rate (%) [1]: 78.8%; Writhing times within 20 min [1]: 7.3 ···

**Q.** For C/C(NCC(N)C(=O)O)=C(/C#N)C(=O)Nc1ccc(C(F)(F)F)cc1 (stereo not shown), which “Writhing inhibition rate (%)” value [1] is on record?
**A.** 76.4%

**Q.** And the Writhing times within 20 min [1]?
**A.** 8.1 ···

**Q.** With C/C(NC(=O)CCCCCN1C(=O)C=CC1=O)=C(/C#N)C(=O)Nc1ccc(C(F)(F)F)cc1 as the compound, how does the IC50 [2] read?
**A.** 1.49 µM

**Q.** What about the IC50 [3] of the same compound?
**A.** 5.51 µM

**Q.** And the IC50 [4]?
**A.** 1.17 µM

**Q.** And the IC50 [5]?
**A.** 0.37 µM

**Q.** And the IC50 [6]?
**A.** 2.57 µM

**Q.** What about the IC50 [7] of the same compound?
**A.** 2.58 µM

**Q.** Cc1c(C#N)c(=O)n(-c2ccc(C(F)(F)F)cc2)c(=O)n1COC(=O)c1ccccc1 was tested. Which Clinical observation [8] did it give?
**A.** No adverse reactions.

**Q.** What about the Tolerance dose [8] of the same compound?
**A.** > 200 mg/kg

**Q.** Which “Writhing inhibition rate (%)” value [1] does the source give for C/C(NC(=O)Nc1ccc(C[C@H](N)C(=O)O)cc1)=C(/C#N)C(=O)Nc1ccc(C(F)(F)F)cc1 here?
**A.** 82.5%

**Q.** And the Writhing times within 20 min [1]?
**A.** 6 ···

**Q.** COC(=O)Cn1c(C)c(C#N)c(=O)n(-c2ccc(C(F)(F)F)cc2)c1=O was tested. Which Clinical observation [8] did it give?
**A.** No adverse reactions.

**Q.** What about the Tolerance dose [8] of the same compound?
**A.** > 200 mg/kg

**Q.** Which results are given for C/C(NO)=C(/C#N)C(=O)Nc1ccc(C(F)(F)F)cc1?
**A.** Writhing inhibition rate (%) [1]: 76.7%; Writhing times within 20 min [1]: 8 ···

**Q.** What does the source list for COC(=O)[C@@H](N)COC(=O)N/C(C)=C(\C#N)C(=O)Nc1ccc(C(F)(F)F)cc1?
**A.** demyelinated areas (LFB staining, spinal cord) ([9]; compared with the Teriflunomide group, Fig. 2): significantly smaller; IL-17A level in spinal [9]: significantly decreased; IFN-γ level in spinal [9]: significantly reduced; Clinical observation [8]: No adverse reactions.; Tolerance dose [8]: > 200 mg/kg

**Q.** For C/C(NC(=O)OC[C@H](N)C(=O)O)=C(/C#N)C(=O)Nc1ccc(C(F)(F)F)cc1, which “IFN-γ level in spinal” value [9] is on record?
**A.** significantly reduced

**Q.** Which IC50 [2] does the source give for Cc1oncc1C(=O)Nc1ccc(C(F)(F)F)cc1 here?
**A.** 6.67 µM

**Q.** And the IC50 [3]?
**A.** 7.86 µM

**Q.** And the IC50 [4]?
**A.** 5.43 µM

**Q.** And the IC50 [5]?
**A.** 5.43 µM

**Q.** And the IC50 [6]?
**A.** 9.16 µM

**Q.** And the IC50 [7]?
**A.** 4.65 µM

**Q.** How did the Clinical observation [8] turn out when C/C(NC(=O)N1CCCCC1)=C(/C#N)C(=O)Nc1ccc(C(F)(F)F)cc1 was run?
**A.** No adverse reactions.

**Q.** And the Tolerance dose [8]?
**A.** > 200 mg/kg

**Q.** What does the source list for CS/C(C(=O)Nc1ccc(C(F)(F)F)cc1)=C(/C)O?
**A.** Writhing inhibition rate (%) [1]: 72.7%; Writhing times within 20 min [1]: 9.4 ···

**Q.** Cc1c(C#N)c(=O)n(-c2ccc(C(F)(F)F)cc2)c(=O)n1CC(C)C was tested. Which Clinical observation [8] did it give?
**A.** No adverse reactions.

**Q.** What about the Tolerance dose [8] of the same compound?
**A.** > 200 mg/kg

**Q.** Cc1c(C#N)c(=O)n(-c2ccc(C(F)(F)F)cc2)c(=O)n1COP(=O)(O)O was tested. Which “Writhing inhibition rate (%)” value [1] did it give?
**A.** 75.9%

**Q.** And the Writhing times within 20 min [1]?
**A.** 8.3 ···

**Q.** And the Clinical observation [8]?
**A.** No adverse reactions.

**Q.** What about the Tolerance dose [8] of the same compound?
**A.** > 200 mg/kg

**Q.** Which results are given for C/C(NC(=O)NCCCC[C@H](N)C(=O)O)=C(/C#N)C(=O)Nc1ccc(C(F)(F)F)cc1?
**A.** IL-17A level in spinal [9]: significantly decreased; IFN-γ level in spinal [9]: significantly reduced

**Q.** Which “Writhing inhibition rate (%)” value [1] does the source give for C/C(N)=C(/C#N)C(=O)Nc1ccc(C(F)(F)F)cc1 here?
**A.** 74.2%

**Q.** And the Writhing times within 20 min [1]?
**A.** 8.9 ···

**Q.** How did the “IFN-γ level in spinal” value [9] turn out when C/C(NP(=O)(O)O)=C(/C#N)C(=O)Nc1ccc(C(F)(F)F)cc1 was run?
**A.** significantly reduced

**Q.** What about the “Writhing inhibition rate (%)” value [1] of the same compound?
**A.** 74.5%

**Q.** And the Writhing times within 20 min [1]?
**A.** 8.8 ···

**Q.** What about the Clinical observation [8] of the same compound?
**A.** No adverse reactions.

**Q.** And the Tolerance dose [8]?
**A.** > 200 mg/kg

**Q.** For CCCCCCCCCCCCCC(=O)N/C(C)=C(\C#N)C(=O)Nc1ccc(C(F)(F)F)cc1, which Clinical observation [8] is on record?
**A.** No adverse reactions.

**Q.** What about the Tolerance dose [8] of the same compound?
**A.** > 200 mg/kg

**Q.** Which results are given for Cc1c(C#N)c(=O)n(-c2ccc(C(F)(F)F)cc2)c(=O)n1C(=O)c1ccccc1?
**A.** Clinical observation [8]: No adverse reactions.; Tolerance dose [8]: > 200 mg/kg

**Q.** Which results are given for CC(C)OC(=O)OCCc1[nH]c(=O)n(-c2ccc(C(F)(F)F)cc2)c(=O)c1C#N?
**A.** Clinical observation [8]: No adverse reactions.; Tolerance dose [8]: > 200 mg/kg

**Q.** Which “Writhing inhibition rate (%)” value [1] does the source give for CCOC(=O)OC[C@H]1OC(N/C(C)=C(\C#N)C(=O)Nc2ccc(C(F)(F)F)cc2)[C@H](O)[C@@H](O)[C@@H]1O (stereo partly shown) here?
**A.** 81.3%

**Q.** And the Writhing times within 20 min [1]?
**A.** 6.4 ···

**Q.** For CC(=O)n1c(C)c(C#N)c(=O)n(-c2ccc(C(F)(F)F)cc2)c1=O, which Clinical observation [8] is on record?
**A.** No adverse reactions.

**Q.** What about the Tolerance dose [8] of the same compound?
**A.** > 200 mg/kg

**Q.** With CS/C(C(=O)Nc1ccc(C(F)(F)F)cc1)=C(/C)OC(C)=O as the compound, how does the “Writhing inhibition rate (%)” value [1] read?
**A.** 73.1%

**Q.** And the Writhing times within 20 min [1]?
**A.** 9.3 ··
